# scFv variants of Ab-14 (heavy chain) against a SARS-CoV-2 spike peptide

Values reported by Engelhart et al. 2022, doi:10.1038/s41597-022-01779-4 (FLAb copy).

Binding partner: SARS-CoV-2 spike HR2 peptide, sequence PDVDLGDISGINAS.

The variants keep the light chain, the linker and the frameworks of Ab-14 (scFv order VH, three GGGGS repeats, VL).
VH: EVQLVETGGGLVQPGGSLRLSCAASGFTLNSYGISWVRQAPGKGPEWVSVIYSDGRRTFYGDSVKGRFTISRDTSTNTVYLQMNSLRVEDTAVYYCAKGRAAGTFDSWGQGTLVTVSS
VL: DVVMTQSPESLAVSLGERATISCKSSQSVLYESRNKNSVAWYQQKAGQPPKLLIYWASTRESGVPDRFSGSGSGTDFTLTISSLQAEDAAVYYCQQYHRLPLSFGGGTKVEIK

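The starting antibody came from a phage panning campaign against this peptide. The library (AAYL49) carries one to three amino acid substitutions per variant, with no insertions or deletions. The assay is AlphaSeq: two haploid yeast populations carry antibody and antigen on their surface. The frequency of each diploid, read from paired DNA barcodes, reflects how well the two displayed proteins bind. Each replicate has its own calibration line, from reference interactions of the BCL2 family. Each pool was mated in three replicate cultures.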

The parent's heavy chain CDRs are GFTLNSYGIS, VIYSDGRRTFYGDSVK, GRAAGTFDS; each variant's own CDRs replace them letter for letter. Numbers give log10(Kd / nM), so 0 is 1 nM and 3 is 1 µM. Smaller is tighter. "ND" marks a missing value. The strain was present, yet no cells mated with the target were sequenced in that replicate, which points to weak or no binding.

CDR-H1,CDR-H2,CDR-H3,"log10 Kd, replicates",signal with controls
GFTLNSYGCS,VIYSDGVRTFYGDSVK,SRAAGTFDS,ND / ND / ND,0 of 9
GFTLNKYGIS,VIYSDGRRTFYGDSVA,GRAAGRFDS,ND / ND / ND,3 of 9 (5.05)
GFTLNSQGIS,VIYSVGRETFYGDSVK,GRAAGTFDS,ND / ND / ND,1 of 9 (4.22)
GFTLNSYGIS,VIYSDGRCEFYGDSVK,GRAAGTFDS,ND / ND / ND,2 of 9 (3.73)
GFTLNSYGIS,VIYSQGRRHFYGDSVQ,GRAAGTFDS,ND / ND / ND,0 of 9
GFTLNSYGIS,VIISDGRRTHYGDSVK,GRAAGTFDP,ND / 3.46 / ND,2 of 9 (3.65)
FFLLNSYGIS,VIYSDGRRTFYGDSVK,GRAAGTFDT,ND / ND / 4.85,1 of 9 (4.95)
GFTLNSYGIS,VIYSDGRRTFYGDSVK,GRAAGTRDR,1.78 / 1.85 / 1.98,1 of 9 (4.07)
GFTLNSYGIS,VIISDGVWTFYGDSVK,GRAAGTFDS,5.74 / ND / ND,1 of 9 (3.03)
GFTLNSYDIS,VIYGDGRRTFYGPSVK,GRAAGTFDS,ND / 4.33 / ND,0 of 9
GFTLNSYGIE,VIYSDGRVTFYGDSVK,GRAAGTFIS,ND / ND / ND,1 of 9 (3.80)
GFTLNSYGIE,VIYSDGRRTFYGDSVK,GRAWGTFDK,3.12 / ND / ND,1 of 9 (3.63)
MFTLNSYGIS,VIYSDGRQTFYGWSVK,GRAAGTFDS,ND / ND / ND,2 of 9 (4.63)
GFPLNGYGIS,VIYSDGRRTFYGDSVK,FRAAGTFDS,ND / 3.68 / ND,1 of 9 (4.02)
GTTLNSQGIS,VIYSDGRRTFYGDSVK,GRAAGTFDS,ND / ND / ND,0 of 9
TFTLNSYGIS,VIYSDGRKTCYGDSVK,GRAAGTFDS,ND / ND / 3.44,0 of 9
GFTLNSYGPS,VIYSDGRRTFYGDSVK,CRAAVTFDS,ND / ND / ND,0 of 9
GFTLNSYGQS,AIYDDGRRTFYGDSVK,GRAAGTFDS,ND / ND / ND,0 of 9
GFTLNSYGPS,VIWSDGRRTFYGPSVK,GRAAGTFDS,ND / ND / ND,0 of 9
HFTLNSYGFS,VIYSDGRRTFYGDSVK,GRAASTFDS,ND / ND / ND,3 of 9 (3.70)
GFTLNSYSIS,AIYSDGRRTFYGDSVK,GRAAGTFAS,ND / ND / ND,4 of 9 (3.80)
GFTLNSYGIS,VIYSDGTRTFYGDSRH,GRAAGTFDS,3.19 / 2.85 / 3.24,2 of 9 (4.31)
GFPLNSYGIS,VIYSDGYRTFYGDSVK,GRAAGTFDL,5.05 / ND / ND,1 of 9 (3.53)
GFTLNSYGIS,FIYSDGRRTDYGDSVK,GDAAGTFDS,ND / ND / ND,1 of 9 (4.36)
GFTLNSYGTA,VIYSDGRRTFYGDSVK,GRAAGTFDS,3.36 / 3.57 / 3.16,0 of 9
GFTLNSYGSS,VIYSGGRRTFYGDSVK,GRIAGTFDS,ND / ND / ND,0 of 9
GFTLNSKGIS,VIYSDGRRTFYGDDVK,GRAAGTFDS,4.67 / 3.50 / 4.92,6 of 9 (4.29)
GFTLNSYGIS,VISSDGRPTFYGDSVK,RRAAGTFDS,ND / ND / ND,0 of 9
GFTLNSYGIS,FIYSAGRRTFYGDSVK,GRAAGTFDS,ND / ND / ND,0 of 9
GFTLWSYGIS,VWYSDGRRTFYGDSVK,YRAAGTFDS,3.90 / 2.80 / ND,1 of 9 (3.07)
GFTLNSYGRS,VIYSDGRRTFYGQSVK,GRAAGAFDS,ND / 4.53 / ND,3 of 9 (4.32)
GTTLHSCGIS,VIYSDGRRTFYGDSVK,GRAAGTFDS,ND / ND / ND,1 of 9 (2.66)
GFTLNSYGIS,VIYSDGQRTFYGDSVK,NRAAGTYDS,0.71 / 0.83 / 0.82,1 of 9 (5.45)

Nonspecific signal, from three strains lacking the peptide, appeared in 15% of pairings of library AAYL49, centred on 4.06 (5% of these signals below 2.83); values are not corrected for it. For each scFv, signals with the empty controls are counted beside the result, with their mean in brackets.